According to PubChem BioAssay AID743397 (Broad Institute, 2014):
The list shows a part of the results, in another mix than the full data. Activity calls are given as the source filed them.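 The calls were made as follows: active = mean replicate inhibition of at least 30% and at least 1% of replicates passing that level; inconclusive = only one of the two criteria is met; inactive = neither criterion is met.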

These compounds were tested on Voltage-dependent L-type calcium channel subunit alpha-1D (CaV1.3) ICDI/IQ interaction (assay: Primary screen for inhibitors of IQ motif and Ca2+-dependent inactivation inhibitor domain binding in CACNA1D, Förster resonance energy transfer in living cells, single-concentration test (AID 743397;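 also: 0% = median of the neutral control wells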)). Conditions: HEK cells, CFP/YFP FRET ICDI-IQ, plate reader, 10 min; at 12.3 µM; hits give high values; percent FRET-ratio fall versus neutral wells.

Q: How did the inhibition turn out when CC(C)(C)c1ccc(OP(C)(=O)Nc2ccc(SC(F)(F)F)cc2)cc1 (configuration not stated) was run?
A: Its inhibition is inactive: -5.73%.

Q: Cc1cccc(C)c1OP(C)(N)=O (configuration not stated) was tested. Which inhibition did it give?
A: The inhibition was inactive: -4.22%.

Q: For O=[N+]([O-])c1ccc2c(c1)C=Nc1ccccc1O2, which inhibition is on record?
A: Its inhibition is inactive: -18.6%.

Q: For O=[N+]([O-])c1cc([N+](=O)[O-])c(Nc2cccnc2)c([N+](=O)[O-])c1, which inhibition is on record?
A: Its inhibition is inactive: -7%.

Q: Which inhibition does the source give for COc1ccccc1OP(C)(=O)Nc1cc(Cl)ccc1C (configuration not stated) here?
A: Its inhibition is inactive: -3.37%.

Q: For COc1ccc(OP(C)(=O)Nc2cccc(F)c2)cc1 (configuration not stated), which inhibition is on record?
A: The inhibition was inactive: -5.42%.

Q: Cc1cc(C)cc(OP(C)(N)=O)c1 (configuration not stated) was tested. Which inhibition did it give?
A: The inhibition was inactive: -7.03%.

Q: Which inhibition does the source give for CCOC(=O)c1ccc(NP(C)(=O)Oc2ccccc2)cc1 (configuration not stated) here?
A: Its inhibition is inactive: -2.15%.

Q: Which inhibition does the source give for COc1ccccc1OP(C)(=O)Nc1ccc(C)cc1 (configuration not stated) here?
A: The inhibition was inactive: -6.86%.

Q: Which inhibition does the source give for Cc1ccc(NP(C)(=O)Oc2ccccc2)c(C)c1 (configuration not stated) here?
A: Its inhibition is inactive: -4.35%.

Q: Which inhibition does the source give for CCN(CC)CCCOC(=O)C(O)(c1ccccc1)c1ccccc1 here?
A: The inhibition was inactive: -8.97%.

Q: How did the inhibition turn out when COc1ccccc1-c1ccccn1.O=[N+]([O-])c1cc([N+](=O)[O-])c(O)c([N+](=O)[O-])c1 was run?
A: The inhibition was inactive: -5.44%.

Q: How did the inhibition turn out when CCc1ccc(OP(C)(=O)N2CCN(c3ccc([N+](=O)[O-])cc3)CC2)cc1 (configuration not stated) was run?
A: The inhibition was inactive: -19.5%.

Q: Which inhibition does the source give for CP(=O)(NC(=O)Nc1ccccc1)Oc1ccccc1 (configuration not stated) here?
A: The inhibition was inactive: -7.93%.

Q: For Cc1cc(C)cc(OP(C)(=O)Nc2ccc(SC(F)(F)F)cc2)c1 (configuration not stated), which inhibition is on record?
A: Its inhibition is inactive: -4.8%.

Q: With CP(=O)(Nc1ccc(SC(F)(F)F)cc1)Oc1ccc(Cl)cc1 (configuration not stated) as the compound, how does the inhibition read?
A: Its inhibition is inactive: -4.94%.

Q: With Cc1cccc(C)c1OP(C)(=O)Nc1ccc(SC(F)(F)F)cc1 (configuration not stated) as the compound, how does the inhibition read?
A: Its inhibition is inactive: -5.41%.

Q: For CP(=O)(Oc1ccccc1)OC(c1ccccc1)C(F)(F)F (configuration not stated), which inhibition is on record?
A: Its inhibition is inactive: -6.3%.

Q: Which inhibition does the source give for CP(=O)(Nc1ccccn1)Oc1ccc(Cl)cc1 (configuration not stated) here?
A: The inhibition was inactive: -7.03%.

Q: For CCOP(C)(=S)SCC(=O)NC(C)C(=O)O (configuration not stated), which inhibition is on record?
A: Its inhibition is inactive: -4.36%.

Q: O=[N+]([O-])c1cc([N+](=O)[O-])c(O)c([N+](=O)[O-])c1.c1ccc(Oc2ccncc2)cc1 was tested. Which inhibition did it give?
A: Its inhibition is inactive: -17%.

Q: Which inhibition does the source give for CCOC(=O)c1ccc(NP(C)(=O)Oc2ccc(OC)cc2)cc1 (configuration not stated) here?
A: The inhibition was inactive: -5.24%.

Q: Which inhibition does the source give for COc1ccccc1OP(C)(=O)Nc1ccccc1 (configuration not stated) here?
A: Its inhibition is inactive: -20.2%.

Q: Which inhibition does the source give for CP(=O)(Nc1ccccc1Br)Oc1ccccc1 (configuration not stated) here?
A: Its inhibition is inactive: -4.32%.

Q: Which inhibition does the source give for CP(=S)(Nn1cnnc1)Oc1ccccc1 (configuration not stated) here?
A: The inhibition was inactive: -3.92%.

Q: How did the inhibition turn out when O=[N+]([O-])c1cc([N+](=O)[O-])c(Nc2nnnn2CCO)c([N+](=O)[O-])c1 was run?
A: Its inhibition is inactive: -16.7%.

Q: Which inhibition does the source give for CCOC(=O)C(CC)C1=NC(C)(C)Cc2ccccc21.O=[N+]([O-])c1cc([N+](=O)[O-])c(O)c([N+](=O)[O-])c1 (configuration not stated) here?
A: Its inhibition is inactive: -1.75%.
